The list shows a part of the results, in another mix than the full data. Some of these compounds have results that are not shown, active ones among them. The source made the active and inactive calls.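 How the source made its calls: active means mean replicate percent of control at or below 100 minus about 85%, very high polarization wells dropped (limit read from the data); inactive means the rest.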

Protein sequences, listed by entry. Tags and fused reporters are not part of them.
UniProt P08753, whole entry: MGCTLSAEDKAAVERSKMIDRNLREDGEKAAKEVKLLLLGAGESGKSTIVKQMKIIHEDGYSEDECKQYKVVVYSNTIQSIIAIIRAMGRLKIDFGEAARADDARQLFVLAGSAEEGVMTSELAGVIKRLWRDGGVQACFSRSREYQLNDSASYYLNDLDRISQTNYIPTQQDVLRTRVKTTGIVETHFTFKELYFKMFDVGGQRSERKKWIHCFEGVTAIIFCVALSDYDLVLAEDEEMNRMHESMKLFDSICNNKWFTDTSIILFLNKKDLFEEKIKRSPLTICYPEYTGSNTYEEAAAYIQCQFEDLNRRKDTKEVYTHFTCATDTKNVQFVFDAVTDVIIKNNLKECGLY
UniProt Q3V6T2, whole entry partner: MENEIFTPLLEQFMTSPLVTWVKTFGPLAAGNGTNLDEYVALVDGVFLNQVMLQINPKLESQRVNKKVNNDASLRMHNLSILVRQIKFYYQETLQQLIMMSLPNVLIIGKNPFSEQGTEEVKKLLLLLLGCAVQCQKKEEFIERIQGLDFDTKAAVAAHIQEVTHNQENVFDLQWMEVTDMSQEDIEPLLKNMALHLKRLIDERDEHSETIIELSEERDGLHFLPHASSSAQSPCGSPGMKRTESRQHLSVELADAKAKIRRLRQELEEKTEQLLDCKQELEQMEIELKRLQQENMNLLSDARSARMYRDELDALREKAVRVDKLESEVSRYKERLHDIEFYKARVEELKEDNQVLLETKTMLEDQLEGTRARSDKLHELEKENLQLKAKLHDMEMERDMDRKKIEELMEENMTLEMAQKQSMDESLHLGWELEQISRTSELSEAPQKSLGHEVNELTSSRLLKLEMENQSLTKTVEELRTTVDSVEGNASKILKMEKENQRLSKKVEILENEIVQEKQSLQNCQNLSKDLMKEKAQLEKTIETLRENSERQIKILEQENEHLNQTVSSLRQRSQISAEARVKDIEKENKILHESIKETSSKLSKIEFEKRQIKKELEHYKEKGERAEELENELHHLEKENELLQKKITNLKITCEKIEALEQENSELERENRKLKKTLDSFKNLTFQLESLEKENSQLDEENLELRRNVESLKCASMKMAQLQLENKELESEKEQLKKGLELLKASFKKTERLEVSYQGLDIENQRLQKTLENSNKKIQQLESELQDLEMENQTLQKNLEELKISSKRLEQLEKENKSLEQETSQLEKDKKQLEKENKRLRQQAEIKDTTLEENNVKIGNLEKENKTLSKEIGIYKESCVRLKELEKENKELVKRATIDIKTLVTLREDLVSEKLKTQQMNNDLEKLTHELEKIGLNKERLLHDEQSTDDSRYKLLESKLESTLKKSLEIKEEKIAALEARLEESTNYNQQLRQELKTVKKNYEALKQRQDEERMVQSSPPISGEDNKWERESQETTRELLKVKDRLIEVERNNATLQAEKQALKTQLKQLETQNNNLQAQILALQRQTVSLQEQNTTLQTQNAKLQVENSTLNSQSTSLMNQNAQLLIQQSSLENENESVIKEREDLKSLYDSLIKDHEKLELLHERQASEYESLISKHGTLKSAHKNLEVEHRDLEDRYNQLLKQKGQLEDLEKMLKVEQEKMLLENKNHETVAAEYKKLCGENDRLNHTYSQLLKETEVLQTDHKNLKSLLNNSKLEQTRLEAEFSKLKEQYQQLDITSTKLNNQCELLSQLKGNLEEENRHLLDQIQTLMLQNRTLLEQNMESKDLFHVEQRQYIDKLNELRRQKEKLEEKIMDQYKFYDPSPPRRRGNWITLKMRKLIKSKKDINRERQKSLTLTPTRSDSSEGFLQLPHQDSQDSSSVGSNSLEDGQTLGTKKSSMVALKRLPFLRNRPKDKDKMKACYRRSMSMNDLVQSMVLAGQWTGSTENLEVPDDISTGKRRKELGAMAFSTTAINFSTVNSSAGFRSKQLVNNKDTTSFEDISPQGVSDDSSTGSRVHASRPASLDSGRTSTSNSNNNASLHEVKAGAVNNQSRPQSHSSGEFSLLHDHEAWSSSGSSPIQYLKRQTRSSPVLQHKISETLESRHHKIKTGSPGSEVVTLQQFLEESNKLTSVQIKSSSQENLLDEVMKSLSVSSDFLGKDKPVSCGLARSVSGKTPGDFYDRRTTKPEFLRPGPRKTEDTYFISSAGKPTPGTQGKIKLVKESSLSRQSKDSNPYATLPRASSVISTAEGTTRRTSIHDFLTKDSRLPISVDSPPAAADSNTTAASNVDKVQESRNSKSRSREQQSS

The assay addresses Guanine nucleotide-binding protein G(i) subunit alpha-3 (Rattus norvegicus) (UniProt P08753). Kind of assay: disruptors of GIV-Galphai3 protein-protein interaction – biochemical, fluorescence polarization, FITC-GIV GBA peptide, rat Galphai3, primary screen (AID 1224905).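 Further: lower values mean more displacement of the GIV peptide from Galpha-i3.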 As to conditions: Galpha-i3/FITC-GIV peptide fluorescence polarization, 90 min; active compounds read low; scaled: aluminum fluoride 0%, vehicle 100%. (In fluorescence polarisation assays a small probe gives low polarisation when free and higher when bound to something large.)
As for `CN(C)C1(CNC(=O)c2ccccc2[N+](=O)[O-])CCCCC1`, the percent of control (FP) was inactive: 99.4%.
On to `Cc1cc(C)c2c(C)c(C(=O)NCC3(N(C)C)CCCCC3)oc2c1`, for which the percent of control (FP) is inactive: 107%.
Regarding `CCCCOc1ccccc1C(=O)NCC1(N(C)C)CCCCC1`, the percent of control (FP) is inactive: 102%.
For the compound `COc1ccc(OC)c(C=C(C#N)C#N)c1`, the percent of control (FP) is inactive: 88.8%.
As to `Cc1c(C(=O)NCC2(N(C)C)CCCCC2)oc2ccccc12`, the percent of control (FP) was inactive: 104%.
On to `CCOc1cccc(C(=O)NCC2(N(C)C)CCCCC2)c1`, for which the percent of control (FP) is inactive: 100%.
As to `Cc1cc2oc(C(=O)NCC3(N(C)C)CCCCC3)c(C)c2cc1Cl`, the percent of control (FP) is inactive: 103%.
The figure for `Cc1ccc2oc(C(=O)NCC3(N(C)C)CCCCC3)c(C)c2c1` is inactive: 105%.
With `CN(C)C1(CNC(=O)c2cccc(Cl)c2)CCCCC1`, the percent of control (FP) was inactive: 103%.
Regarding `CN(C)C1(CNC(=O)c2ccccc2F)CCCCC1`, the percent of control (FP) was inactive: 101%.
The same measure for `COc1cccc(C(=O)NCC2(N3CCOCC3)CCCCC2)c1`: inactive: 103%; for `CC(C)COc1ccc(C(=O)NCC2(N(C)C)CCCCC2)cc1`: inactive: 102%.
Regarding `Cc1ccc2c(Cl)c(C(=O)NCC3(N(C)C)CCCCC3)sc2c1`, the percent of control (FP) was inactive: 107%.
For the compound `COc1cc(C(=O)NCC2(N(C)C)CCCCC2)cc(OC)c1OC`, the percent of control (FP) was inactive: 103%.
On to `Cc1cccc(C(=O)NCC2(N(C)C)CCCCC2)c1`, for which the percent of control (FP) is inactive: 105%.
On to `CN1C2CCC1CC(OC(=O)C(O)(c1ccccc1)c1ccccc1)C2` (stereo not given), for which the percent of control (FP) is inactive: 98.8%.
The figure for `CC(C)Oc1ccc(C(=O)NCC2(N(C)C)CCCCC2)cc1` is inactive: 101%; for `Cc1c(C(=O)NCC2(N(C)C)CCCCC2)oc2ccc(F)cc12` it is inactive: 105%; for `COc1ccc(C(=O)NCC2(N(C)C)CCCCC2)cc1Cl` it is inactive: 99.9%.
The same measure for `Cc1ccc2c(C)c(C(=O)NCC3(N(C)C)CCCCC3)oc2c1`: inactive: 107%.

The record behind these values is PubChem BioAssay AID1224905 (ICCB-Longwood Screening Facility, Harvard Medical School, 2016).
